{
  "source": "PubChem BioAssay AID493213",
  "about": "(Broad Institute, 2011)",
  "test": "cellular proteasome inhibitors – cell-based, luminescence, U2OS, dry powder, set 3, counter-screen for HIF activator project, dose response (AID 493213)",
  "details": "U2OS proteasome chymotrypsin-like activity, Proteasome-Glo luminescence; at 38 µM (top of the series)",
  "outline": "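System: U2OS cells; compound: 8-point 3-fold series; repeats: duplicates; schedule: 24 h plating, 4 h compound, 2 h reagent; measured by: Proteasome-Glo luminescence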",
  "note": "Only a part is listed here, and it is no random draw. Activity calls are given as the source filed them.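 The calls were made as follows: active = dose response lowering luminescence by over half the proteasome blocker control effect, potency within ten times top dose; inactive = change in the opposite direction, plus the rest.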",
  "data": [
    {"smiles": "O=c1[nH]c2ccccc2n1C1CCN(Cc2ccc(O)c3ncccc23)CC1", "values": [
      {"measurement": "activity change, negative = inhibition", "result": "inactive: 27.9%"}
    ]}
  ]
}
